This passage reports efflux ratio results from patent publication US10479794B2, “Cyclic ether derivatives of pyrazolo[1,5-a]pyrimidine-3-carboxyamide” (Boehringer Ingelheim International GmbH, priority 2015, dated 2019).

The data set relates to human MDR1 P-gp. As to the kind of experiment: Assessment of efflux in MDCK cells transfected with the human MDR1 gene (MDCK assay). It counts as in vitro ADME, canine. To be noted: dog, MDCK-MDR1, pH 7.4, MDCK-MDR1; Papp (b-a) divided by Papp (a-b). Here is the method:
Assessment of Efflux in Madin-Darby Canine Kidney Cells Transfected with the Human MDR1 Gene (MDCK Assay)
Apparent permeability coefficients (PE) of the compounds across the MDCK-MDR1 cell monolayers are measured (pH 7.4, 37° C.) in apical-to-basal (AB) and basal-to-apical (BA) transport direction. AB permeability (PEAB) represents drug absorption from the blood into the brain and BA permeability (PEBA) drug efflux from the brain back into the blood via both passive permeability as well as active transport mechanisms mediated by efflux and uptake transporters that are expressed on the MDCK-MDR1 cells, predominantly by the overexpressed human MDR1 P-gp. The compounds are assigned to permeability/absorption classes by comparison of the AB permeabilities with the AB permeabilities of reference compounds with known in vitro permeability and oral absorption in the human. Identical or similar permeabilities in both transport directions indicate passive permeation, vectorial permeability points to additional active transport mechanisms. Higher PEBA than PEAB indicates the involvement of active efflux mediated by MDR1 P-gp. […]
MDCK-MDR1 cells (1-2×10e5 cells/1 cm2 area) are seeded on filter inserts (Costar transwell polycarbonate or PET filters, 0.4 μm pore size) and cultured (DMEM) for 7 days. […] Efflux ratio is calculated dividing the Papp (b-a) values by the Papp (a-b) values.

Consider `Cc1nn2cc(C3CC3)cnc2c1C(=O)NC1(c2ccc(C(F)(F)F)nc2)CCOCC1O` (racemic) [Example 51], for which the efflux ratio at 2 h is 5.
